According to PubChem BioAssay AID565 (University of Pittsburgh Molecular Library Screening Center, 2006):
The entries are a selection whose mix differs from that of the whole data set. Some results for these compounds are left out of this collection, so the calls shown say nothing about other tests. The source made the active and inactive calls. Cut-off read from the data, not from the text of the source: active = inhibition above about 50%; inactive = the rest.

biological target: Gag-Pol polyprotein (Human immunodeficiency virus type 1 group M subtype B (isolate HXB2)) (UniProt P04585); experiment: HIV-1 RT RNase H inhibitors, primary screen, biochemical, fluorescence (AID 565); settings: RT-RNase H RNA/DNA duplex cleavage, at 10 µM, active compounds read high

Question: For `O=C(OC1CN2CCC1CC2)C(CO)(c1ccccc1)c1ccccc1` (configuration not stated), which inhibition is on record?
Answer: inactive: -5.68%

Question: Which inhibition does the source give for `CN(C)c1cccc(C(=O)NCC2(N(C)C)CCCCC2)c1` here?
Answer: inactive: 5.25%
